Values of other authors in patent publication US12283350B2.

Sequences of proteins named here, by UniProt entry; tags and fusion partners are left off.
UniProt P50750, whole entry: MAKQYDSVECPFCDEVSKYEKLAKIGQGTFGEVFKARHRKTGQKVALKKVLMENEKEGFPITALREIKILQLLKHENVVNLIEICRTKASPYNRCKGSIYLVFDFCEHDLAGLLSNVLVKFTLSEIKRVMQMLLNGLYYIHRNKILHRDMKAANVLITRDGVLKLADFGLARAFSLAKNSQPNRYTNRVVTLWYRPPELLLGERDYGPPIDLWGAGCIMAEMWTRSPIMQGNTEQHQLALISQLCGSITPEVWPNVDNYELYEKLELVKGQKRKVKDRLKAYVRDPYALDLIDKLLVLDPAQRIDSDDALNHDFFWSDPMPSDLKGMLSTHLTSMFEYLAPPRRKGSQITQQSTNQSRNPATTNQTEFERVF
UniProt O60563, whole entry partner: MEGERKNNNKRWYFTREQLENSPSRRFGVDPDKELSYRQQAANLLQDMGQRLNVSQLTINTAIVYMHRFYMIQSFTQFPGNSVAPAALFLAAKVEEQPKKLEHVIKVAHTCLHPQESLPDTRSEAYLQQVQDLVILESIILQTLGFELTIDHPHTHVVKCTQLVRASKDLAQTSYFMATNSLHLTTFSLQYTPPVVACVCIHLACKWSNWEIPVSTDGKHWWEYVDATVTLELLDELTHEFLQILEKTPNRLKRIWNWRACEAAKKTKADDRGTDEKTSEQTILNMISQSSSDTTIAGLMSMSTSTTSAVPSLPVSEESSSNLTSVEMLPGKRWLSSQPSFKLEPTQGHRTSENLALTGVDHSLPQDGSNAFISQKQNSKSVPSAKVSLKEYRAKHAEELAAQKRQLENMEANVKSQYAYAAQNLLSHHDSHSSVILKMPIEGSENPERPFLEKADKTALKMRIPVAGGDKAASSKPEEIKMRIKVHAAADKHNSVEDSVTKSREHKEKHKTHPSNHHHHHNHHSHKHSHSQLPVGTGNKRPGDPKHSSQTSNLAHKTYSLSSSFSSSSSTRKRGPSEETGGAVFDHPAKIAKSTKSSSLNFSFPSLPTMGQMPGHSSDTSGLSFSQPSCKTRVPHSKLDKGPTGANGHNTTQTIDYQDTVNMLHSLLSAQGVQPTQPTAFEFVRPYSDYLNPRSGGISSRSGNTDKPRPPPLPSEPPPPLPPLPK

target: CDK9 (Homo sapiens, UniProt P50750); settings: held-out literature compounds regenerated by the generative model (FIG. 53)

measured pIC50 | SMILES
8.70 | CN1CCC(c2c(O)cc(O)c3c(=O)cc(/C=C/c4c(Cl)cccc4Cl)oc23)C(O)C1 (stereo not drawn)
8.05 | O=C(Nc1cc(-c2cncc(NCC3CCOCC3)n2)c(Cl)cn1)C1CCCNC1 (stereo not drawn)

SMILES | measured pIC50
COc1ccccc1-c1cc(Nc2ccccn2)ncn1 | 7.44
